# Assay results: publication PMC9369162, “Substrates of the Human Brain Proton-Organic Cation Antiporter and Comparison with Organic Cation Transporter 1 Activities” (International Journal of Molecular Sciences, 2022)
# Target: T1, OCT1 (Homo sapiens, UniProt O15245)
# T1 construct: expressed in transfected cells; host or cells: HEK293
# T1 sequence (O15245 1-554): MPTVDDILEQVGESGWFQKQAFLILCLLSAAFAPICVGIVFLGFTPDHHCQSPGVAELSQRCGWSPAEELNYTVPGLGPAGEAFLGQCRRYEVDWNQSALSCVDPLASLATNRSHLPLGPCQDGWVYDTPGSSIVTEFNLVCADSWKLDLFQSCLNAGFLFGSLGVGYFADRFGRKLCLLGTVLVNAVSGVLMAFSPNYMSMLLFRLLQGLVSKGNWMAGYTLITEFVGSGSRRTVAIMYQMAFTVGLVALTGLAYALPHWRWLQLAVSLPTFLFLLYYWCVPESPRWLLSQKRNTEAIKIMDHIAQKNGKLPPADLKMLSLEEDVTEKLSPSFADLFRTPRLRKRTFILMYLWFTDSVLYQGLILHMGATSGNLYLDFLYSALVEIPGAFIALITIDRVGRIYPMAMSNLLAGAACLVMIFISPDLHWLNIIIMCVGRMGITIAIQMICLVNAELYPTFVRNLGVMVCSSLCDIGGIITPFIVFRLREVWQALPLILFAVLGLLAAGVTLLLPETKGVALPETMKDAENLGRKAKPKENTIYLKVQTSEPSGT
# Assay: Cell uptake in OCT1 overexpressing HEK293 cells over empty-vector transfected cells
# Format: cell-based
structure (smiles),measurement,value
CC(Cc1ccc(O)cc1)NCC(O)c1cc(O)cc(O)c1 (stereo not shown) [Fenoterol],OCT1 Ratio,13.90
